Earlier results, collected in patent US9133183B2 (Deciphera Pharmaceuticals, LLC, priority 2013, dated 2015).

Amino acid sequences for entries named in this document (tags omitted). Residues count along the entry.
UniProt P08581, 25-1390 limits assumed: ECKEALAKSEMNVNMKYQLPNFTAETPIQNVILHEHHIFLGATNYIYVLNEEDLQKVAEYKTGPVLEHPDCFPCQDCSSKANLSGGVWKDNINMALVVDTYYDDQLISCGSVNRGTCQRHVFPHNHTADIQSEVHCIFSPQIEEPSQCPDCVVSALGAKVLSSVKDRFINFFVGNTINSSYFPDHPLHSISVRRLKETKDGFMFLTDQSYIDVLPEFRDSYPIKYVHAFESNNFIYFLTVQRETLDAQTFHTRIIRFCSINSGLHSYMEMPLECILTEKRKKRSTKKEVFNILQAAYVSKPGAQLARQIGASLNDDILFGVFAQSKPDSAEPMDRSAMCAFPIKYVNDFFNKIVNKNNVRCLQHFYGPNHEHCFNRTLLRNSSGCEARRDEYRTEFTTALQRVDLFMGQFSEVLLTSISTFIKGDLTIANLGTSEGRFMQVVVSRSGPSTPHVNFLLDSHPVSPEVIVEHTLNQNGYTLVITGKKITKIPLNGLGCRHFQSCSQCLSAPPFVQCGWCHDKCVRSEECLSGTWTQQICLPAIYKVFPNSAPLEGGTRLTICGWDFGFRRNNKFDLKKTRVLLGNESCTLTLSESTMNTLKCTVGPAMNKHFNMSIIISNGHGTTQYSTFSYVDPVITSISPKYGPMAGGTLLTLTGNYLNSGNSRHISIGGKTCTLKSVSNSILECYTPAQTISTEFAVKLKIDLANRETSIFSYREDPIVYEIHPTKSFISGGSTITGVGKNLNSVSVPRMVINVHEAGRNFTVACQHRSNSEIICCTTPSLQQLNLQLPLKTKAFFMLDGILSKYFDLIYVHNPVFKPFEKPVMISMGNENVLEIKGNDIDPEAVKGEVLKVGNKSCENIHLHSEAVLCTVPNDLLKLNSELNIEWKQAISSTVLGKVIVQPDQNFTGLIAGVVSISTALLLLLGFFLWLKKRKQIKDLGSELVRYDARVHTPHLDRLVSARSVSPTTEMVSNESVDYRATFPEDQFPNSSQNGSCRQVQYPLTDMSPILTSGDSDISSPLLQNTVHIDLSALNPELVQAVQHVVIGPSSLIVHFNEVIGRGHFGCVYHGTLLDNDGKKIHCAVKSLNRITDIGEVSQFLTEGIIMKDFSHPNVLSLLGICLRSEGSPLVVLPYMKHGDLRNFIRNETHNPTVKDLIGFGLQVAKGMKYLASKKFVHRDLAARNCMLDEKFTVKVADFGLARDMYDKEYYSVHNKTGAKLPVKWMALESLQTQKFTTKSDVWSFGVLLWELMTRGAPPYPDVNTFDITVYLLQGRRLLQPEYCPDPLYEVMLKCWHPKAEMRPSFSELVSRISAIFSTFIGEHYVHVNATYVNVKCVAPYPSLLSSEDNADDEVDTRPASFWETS
UniProt P35968, 20-1356 limits assumed: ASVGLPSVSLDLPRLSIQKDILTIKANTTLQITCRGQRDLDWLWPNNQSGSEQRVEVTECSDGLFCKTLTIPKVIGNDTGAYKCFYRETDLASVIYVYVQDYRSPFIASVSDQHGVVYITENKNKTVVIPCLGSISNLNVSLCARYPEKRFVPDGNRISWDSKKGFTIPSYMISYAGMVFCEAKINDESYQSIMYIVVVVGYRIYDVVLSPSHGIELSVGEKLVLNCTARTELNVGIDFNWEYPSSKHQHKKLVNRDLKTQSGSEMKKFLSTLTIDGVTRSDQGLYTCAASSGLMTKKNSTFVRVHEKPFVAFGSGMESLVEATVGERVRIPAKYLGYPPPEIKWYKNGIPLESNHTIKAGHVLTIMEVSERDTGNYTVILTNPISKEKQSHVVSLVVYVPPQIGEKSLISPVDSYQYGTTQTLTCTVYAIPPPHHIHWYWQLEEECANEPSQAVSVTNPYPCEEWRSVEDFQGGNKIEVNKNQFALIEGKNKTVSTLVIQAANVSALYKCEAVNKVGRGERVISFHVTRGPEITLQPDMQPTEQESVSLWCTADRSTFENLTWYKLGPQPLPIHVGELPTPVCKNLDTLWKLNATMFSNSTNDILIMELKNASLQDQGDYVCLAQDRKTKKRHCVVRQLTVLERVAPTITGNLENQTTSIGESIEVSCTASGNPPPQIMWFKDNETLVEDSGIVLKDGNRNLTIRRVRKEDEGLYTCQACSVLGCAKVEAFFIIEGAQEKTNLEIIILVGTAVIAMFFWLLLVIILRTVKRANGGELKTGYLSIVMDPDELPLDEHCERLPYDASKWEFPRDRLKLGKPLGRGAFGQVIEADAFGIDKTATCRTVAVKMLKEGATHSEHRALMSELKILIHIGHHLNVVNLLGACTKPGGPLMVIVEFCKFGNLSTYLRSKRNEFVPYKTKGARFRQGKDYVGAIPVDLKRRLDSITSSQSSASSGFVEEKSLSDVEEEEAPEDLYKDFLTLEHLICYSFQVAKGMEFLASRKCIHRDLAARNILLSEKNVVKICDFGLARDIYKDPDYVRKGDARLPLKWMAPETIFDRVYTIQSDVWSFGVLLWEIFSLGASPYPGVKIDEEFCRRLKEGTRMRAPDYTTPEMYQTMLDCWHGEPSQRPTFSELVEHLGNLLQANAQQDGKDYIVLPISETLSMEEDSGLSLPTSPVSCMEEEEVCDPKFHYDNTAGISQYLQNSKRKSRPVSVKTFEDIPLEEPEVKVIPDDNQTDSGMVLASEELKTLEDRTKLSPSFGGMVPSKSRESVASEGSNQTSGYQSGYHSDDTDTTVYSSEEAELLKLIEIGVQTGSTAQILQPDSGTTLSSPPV

What was measured:
cMET kinase = cMET kinase (Homo sapiens (Human), UniProt P08581); settings: read-out: cMET IC50; published data from US2008/0255155; cited from earlier work
KDR kinase = KDR kinase (Homo sapiens (Human), UniProt P35968); settings: read-out: KDR IC50; published data from US2008/0255155; cited from earlier work

| SMILES | IC50 (cMET kinase) [µM] | IC50 (KDR kinase) [µM] |
| --- | --- | --- |
| CNC(=O)c1cc(Oc2ccc(NC(=O)N3CCN(c4ccccc4)C3=O)cc2F)ccn1 | < 0.5 | < 0.5 |
| CNC(=O)c1cc(Oc2ccc(NC(=O)N3CCN(c4ccc(F)cc4)C3=O)cc2F)ccn1 | < 1 | > 1 |
| O=C(Nc1cc(Oc2ccc(NC(=O)N3CCN(c4ccccc4)C3=O)cc2F)ccn1)N1CCCC1 |  | < 0.5 |
